Data as given in IntAct's records for PubMed 35512704.

B1: RAC-alpha serine/threonine-protein kinase (Homo sapiens), P31749 (parent)
chain: MSDVAIVKEGWLHKRGEYIKTWRPRYFLLKNDGTFIGYKERPQDVDQREAPLNNFSVAQCQLMKTERPRPNTFIIRCLQWTTVIERTFHVETPEEREEWTTAIQTVADGLKKQEEEEMDFRSGSPSDNSGAEEMEVSLAKPKHRVTMNEFEYLKLLGKGTFGKVILVKEKATGRYYAMKILKKEVIVAKDEVAHTLTENRVLQNSRHPFLTALKYSFQTHDRLCFVMEYANGGELFFHLSRERVFSEDRARFYGAEIVSALDYLHSEKNVVYRDLKLENLMLDKDGHIKITDFGLCKEGIKDGATMKTFCGTPEYLAPEVLEDNDYGRAVDWWGLGVVMYEMMCGRLPFYNQDHEKLFELILMEEIRFPRTLGPEAKSLLSGLLKKDPKQRLGGGSEDAKEIMQHRFFAGIVWQHVYEKKLSPPFKPQVTSETDTRYFDEEFTAQMITITPPDQDDSMECVDSERRPHFPQFSYSASGTA
partner: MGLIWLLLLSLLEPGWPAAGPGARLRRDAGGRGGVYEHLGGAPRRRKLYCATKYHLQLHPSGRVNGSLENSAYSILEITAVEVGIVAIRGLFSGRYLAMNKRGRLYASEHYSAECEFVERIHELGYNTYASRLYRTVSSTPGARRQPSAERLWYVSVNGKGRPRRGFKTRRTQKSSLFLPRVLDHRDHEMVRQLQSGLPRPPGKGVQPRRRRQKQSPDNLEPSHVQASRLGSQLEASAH
B2: RAC-alpha serine/threonine-protein kinase (Homo sapiens), P31749 (parent)
chain: B1 chain
partner: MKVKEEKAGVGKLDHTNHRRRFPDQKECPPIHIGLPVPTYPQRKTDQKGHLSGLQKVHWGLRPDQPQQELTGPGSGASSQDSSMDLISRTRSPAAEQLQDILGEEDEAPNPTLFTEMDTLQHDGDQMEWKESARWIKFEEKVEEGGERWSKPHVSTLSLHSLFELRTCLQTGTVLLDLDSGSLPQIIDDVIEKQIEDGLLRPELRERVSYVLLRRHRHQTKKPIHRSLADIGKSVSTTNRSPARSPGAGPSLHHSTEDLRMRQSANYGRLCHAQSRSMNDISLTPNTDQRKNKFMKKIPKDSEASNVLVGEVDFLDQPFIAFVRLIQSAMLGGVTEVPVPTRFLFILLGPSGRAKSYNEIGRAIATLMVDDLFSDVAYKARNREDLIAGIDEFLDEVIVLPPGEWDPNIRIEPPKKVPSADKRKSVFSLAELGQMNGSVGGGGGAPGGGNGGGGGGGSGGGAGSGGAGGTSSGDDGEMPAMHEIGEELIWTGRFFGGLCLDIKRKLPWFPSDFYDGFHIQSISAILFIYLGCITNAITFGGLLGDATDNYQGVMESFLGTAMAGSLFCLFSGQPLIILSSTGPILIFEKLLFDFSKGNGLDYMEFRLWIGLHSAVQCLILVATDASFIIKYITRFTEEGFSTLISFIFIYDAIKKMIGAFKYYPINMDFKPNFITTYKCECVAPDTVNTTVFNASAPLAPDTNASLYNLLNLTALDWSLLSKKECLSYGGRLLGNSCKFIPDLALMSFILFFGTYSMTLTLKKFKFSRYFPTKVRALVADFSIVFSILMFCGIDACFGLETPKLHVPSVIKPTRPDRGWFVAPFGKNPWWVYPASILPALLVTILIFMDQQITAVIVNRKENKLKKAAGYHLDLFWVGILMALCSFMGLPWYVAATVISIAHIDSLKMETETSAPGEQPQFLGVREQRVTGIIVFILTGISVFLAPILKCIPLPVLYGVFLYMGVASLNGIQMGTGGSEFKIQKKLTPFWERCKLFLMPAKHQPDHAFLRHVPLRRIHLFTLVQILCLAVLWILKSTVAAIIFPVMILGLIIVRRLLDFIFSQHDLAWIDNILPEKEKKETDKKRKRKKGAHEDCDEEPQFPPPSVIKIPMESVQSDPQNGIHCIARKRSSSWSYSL
B3: RAC-alpha serine/threonine-protein kinase (Homo sapiens), P31749 (parent)
chain: B1 chain
partner: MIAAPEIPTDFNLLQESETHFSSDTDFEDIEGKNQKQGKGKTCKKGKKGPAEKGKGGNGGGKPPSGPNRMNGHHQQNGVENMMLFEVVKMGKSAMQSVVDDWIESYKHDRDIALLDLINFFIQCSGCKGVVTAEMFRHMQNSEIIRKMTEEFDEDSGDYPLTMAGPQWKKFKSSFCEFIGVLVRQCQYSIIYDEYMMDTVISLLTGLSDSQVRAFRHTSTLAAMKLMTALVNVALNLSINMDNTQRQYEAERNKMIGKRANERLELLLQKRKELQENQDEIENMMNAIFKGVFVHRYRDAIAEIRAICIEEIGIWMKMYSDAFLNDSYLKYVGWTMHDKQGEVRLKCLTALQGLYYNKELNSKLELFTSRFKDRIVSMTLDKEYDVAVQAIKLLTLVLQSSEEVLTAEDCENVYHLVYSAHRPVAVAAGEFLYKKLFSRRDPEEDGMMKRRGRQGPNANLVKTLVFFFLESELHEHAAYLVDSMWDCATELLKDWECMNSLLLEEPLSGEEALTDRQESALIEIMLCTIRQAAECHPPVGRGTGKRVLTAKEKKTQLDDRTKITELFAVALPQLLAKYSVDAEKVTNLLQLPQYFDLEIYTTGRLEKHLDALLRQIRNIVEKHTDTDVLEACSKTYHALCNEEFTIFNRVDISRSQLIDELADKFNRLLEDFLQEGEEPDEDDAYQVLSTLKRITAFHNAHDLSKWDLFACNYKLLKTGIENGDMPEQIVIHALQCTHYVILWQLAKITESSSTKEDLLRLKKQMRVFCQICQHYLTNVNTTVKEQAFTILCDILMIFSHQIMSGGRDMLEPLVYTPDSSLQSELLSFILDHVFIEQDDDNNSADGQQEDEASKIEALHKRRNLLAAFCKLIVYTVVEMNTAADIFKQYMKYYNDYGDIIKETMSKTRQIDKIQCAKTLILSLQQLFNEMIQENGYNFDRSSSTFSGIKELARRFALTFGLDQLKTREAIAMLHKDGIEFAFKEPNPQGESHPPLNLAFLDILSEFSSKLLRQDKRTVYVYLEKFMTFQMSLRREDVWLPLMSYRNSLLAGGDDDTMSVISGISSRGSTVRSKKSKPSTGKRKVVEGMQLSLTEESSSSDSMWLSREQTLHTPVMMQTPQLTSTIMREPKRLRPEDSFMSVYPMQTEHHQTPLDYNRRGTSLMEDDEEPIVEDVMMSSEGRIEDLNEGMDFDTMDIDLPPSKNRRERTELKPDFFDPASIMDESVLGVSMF
B4: RAC-alpha serine/threonine-protein kinase (Homo sapiens), P31749 (parent)
chain: B1 chain
partner: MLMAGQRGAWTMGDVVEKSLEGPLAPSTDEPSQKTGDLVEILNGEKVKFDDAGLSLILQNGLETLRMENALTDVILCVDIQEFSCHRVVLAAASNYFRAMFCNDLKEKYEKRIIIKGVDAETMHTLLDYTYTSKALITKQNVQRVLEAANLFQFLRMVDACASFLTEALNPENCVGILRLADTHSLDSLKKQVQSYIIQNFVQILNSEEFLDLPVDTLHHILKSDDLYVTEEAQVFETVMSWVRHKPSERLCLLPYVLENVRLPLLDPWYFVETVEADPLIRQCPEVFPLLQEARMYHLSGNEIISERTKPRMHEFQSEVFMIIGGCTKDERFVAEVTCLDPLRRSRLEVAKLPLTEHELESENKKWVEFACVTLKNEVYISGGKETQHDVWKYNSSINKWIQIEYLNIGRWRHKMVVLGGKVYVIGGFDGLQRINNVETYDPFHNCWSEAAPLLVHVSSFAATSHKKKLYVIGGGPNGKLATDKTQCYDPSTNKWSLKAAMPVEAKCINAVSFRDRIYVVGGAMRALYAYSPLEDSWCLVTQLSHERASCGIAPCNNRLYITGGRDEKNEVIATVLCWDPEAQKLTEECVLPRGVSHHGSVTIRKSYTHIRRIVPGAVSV
B5: RAC-alpha serine/threonine-protein kinase (Homo sapiens), P31749 (parent)
chain: B1 chain
partner: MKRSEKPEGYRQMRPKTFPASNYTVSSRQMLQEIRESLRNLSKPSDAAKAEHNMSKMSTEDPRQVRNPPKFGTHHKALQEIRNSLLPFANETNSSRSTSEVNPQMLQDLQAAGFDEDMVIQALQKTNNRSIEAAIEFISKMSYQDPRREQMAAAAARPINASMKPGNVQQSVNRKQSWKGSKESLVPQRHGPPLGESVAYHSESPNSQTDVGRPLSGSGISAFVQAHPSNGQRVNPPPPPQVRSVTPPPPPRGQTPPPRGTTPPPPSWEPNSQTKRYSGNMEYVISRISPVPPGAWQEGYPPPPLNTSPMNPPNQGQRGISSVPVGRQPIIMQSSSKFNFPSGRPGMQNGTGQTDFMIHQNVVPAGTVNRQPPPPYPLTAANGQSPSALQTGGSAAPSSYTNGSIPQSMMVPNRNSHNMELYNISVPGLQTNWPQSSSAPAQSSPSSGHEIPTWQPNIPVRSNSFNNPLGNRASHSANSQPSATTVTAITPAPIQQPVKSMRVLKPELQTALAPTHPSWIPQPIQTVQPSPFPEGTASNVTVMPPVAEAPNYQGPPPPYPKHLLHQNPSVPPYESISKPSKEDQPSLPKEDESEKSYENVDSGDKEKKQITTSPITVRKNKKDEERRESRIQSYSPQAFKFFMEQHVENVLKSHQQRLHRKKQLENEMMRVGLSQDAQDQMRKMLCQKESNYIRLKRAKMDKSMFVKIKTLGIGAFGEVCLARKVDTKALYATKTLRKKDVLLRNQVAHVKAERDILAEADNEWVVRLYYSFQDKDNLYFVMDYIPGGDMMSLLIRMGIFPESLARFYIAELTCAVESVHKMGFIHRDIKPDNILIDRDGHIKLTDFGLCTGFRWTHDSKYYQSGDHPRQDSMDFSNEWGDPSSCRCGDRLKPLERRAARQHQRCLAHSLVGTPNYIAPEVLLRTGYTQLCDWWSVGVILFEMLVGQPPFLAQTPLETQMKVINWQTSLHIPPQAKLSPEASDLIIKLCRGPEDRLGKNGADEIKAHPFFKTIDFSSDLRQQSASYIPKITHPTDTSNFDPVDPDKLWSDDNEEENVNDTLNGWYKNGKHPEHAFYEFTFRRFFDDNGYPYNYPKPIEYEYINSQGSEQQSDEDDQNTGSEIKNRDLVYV
B6: RAC-alpha serine/threonine-protein kinase (Homo sapiens), P31749 (parent)
chain: B1 chain
partner: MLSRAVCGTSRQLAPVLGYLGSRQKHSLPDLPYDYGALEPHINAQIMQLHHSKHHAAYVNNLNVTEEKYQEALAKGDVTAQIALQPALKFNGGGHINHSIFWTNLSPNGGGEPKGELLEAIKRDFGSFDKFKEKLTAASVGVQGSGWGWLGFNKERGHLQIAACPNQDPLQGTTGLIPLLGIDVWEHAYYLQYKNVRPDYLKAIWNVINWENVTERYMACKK

Variants of: B1
Details: with fgf3_human FGF3, P11487

| effect of a mutation on the interaction | Variant |
| --- | --- |
| causing an interaction | E17K |

Variants of: B2
Details: with s4a5_human SLC4A5, Q9BY07

| effect of a mutation on the interaction | Variant |
| --- | --- |
| causing an interaction | E17K |

Variants of: B3
Details: with stag2_human STAG2, Q8N3U4

| effect of a mutation on the interaction | Variant |
| --- | --- |
| causing an interaction | E17K |

Variants of: B3
Details: with stag2_human STAG2, Q8N3U4
Remark: another data set of the same source

| effect of a mutation on the interaction | Variant |
| --- | --- |
| increasing interaction strength | E17K |

Variants of: B4
Details: with klhl6_human KLHL6, Q8WZ60

| effect of a mutation on the interaction | Variant |
| --- | --- |
| causing an interaction | E17K |

Variants of: B4
Details: with klhl6_human KLHL6, Q8WZ60
Remark: another data set of the same source

| effect of a mutation on the interaction | Variant |
| --- | --- |
| increasing interaction strength | E17K |

Variants of: B5
Details: with lats1_human LATS1, O95835

| effect of a mutation on the interaction | Variant |
| --- | --- |
| causing an interaction | E17K |

Variants of: B6
Details: with sodm_human SOD2, P04179

| effect of a mutation on the interaction | Variant |
| --- | --- |
| causing an interaction | E17K |
